Screening data (PubChem)
Compounds with a hit are over-represented: about 4.2% of the library has one in this group of screens.
MC4R barr agon: MC4R agonists recruiting beta-arrestin, primary screen, cell-based, luminescence, agonist arm of biased-ligand search; U2OS MC4R beta-arrestin complementation; percent of melanotan II response, DMSO zero; activation, % at 8.9 µM; 0.98% of 360,000 active; AID 540308, 2011;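 active = activation above a per-plate cutoff, the mean activation of sample wells on that plate plus 3 SD, cut at about 8% in these data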
ALR H2O2 inh: human ALR oxidase inhibition via reduced H2O2; P55789; 290,000 tested, 3.8% active; inhibition, % (no concentration beside the values); purified ALR, DTT oxidation, H2O2 HRP-luminol luminescence; AID 485317;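 active = mean and each replicate at 75% or more; inconclusive = only one of the two met; inactive = neither met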;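 note: stock transfer was 7.5 nL into about 7.5 µL; 0% = neutral wells and 100% = wells with inactivated enzyme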
MC4R antag cAMP: MC4R antagonists of cAMP signaling, primary screen, cell-based, TR-FRET, antagonist arm of biased-ligand search | Melanocortin receptor 4 (Homo sapiens), P32245 | MC4R-expressing cells, MTII-stimulated cAMP, LANCE TR-FRET | inhibition, % at 6.5 µM | 0.48% of 360,000 active;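 active = inhibition above its plate's cutoff, the mean of tested wells on that plate plus 3 SD, cut at about 29% in these data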;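 note: 0% = Melanotan II alone and 100% = Melanotan II plus saturating MCL0020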
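Material – human MC4R-expressing U2OS cells · Repeats – no replicates · Detection – TR-FRET with Eu-cAMP and labeled anti-cAMP, 671 nm · Times – compound 30 min, challenge 1 h, detection 1 h · Compound – single nominal compound dose of 6.5 µM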
NALP1 yeast inh: NALP1 inflammasome inhibitors in reconstituted yeast, colorimetric, S. cerevisiae, triplicate retest; S. cerevisiae NALP1/ASC/caspase-1 growth, X-gal OD620, 72 h; inhibition, % at 10 µM; 0.61% of 280,000 active; AID 2071, 2009; in the data active = inhibition mostly above about 24%, no sharp cut-off; inactive = mostly below about 32%
Yeast UUG start: alters start codon recognition fidelity in yeast; S. cerevisiae UUG-firefly luciferase reporter, luminescence/redox ratio; activity score, % at 18.7 µM; hit rate 0.13% among 350,000;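 active = replicate mean at a twofold rise or more, about +100% in these data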;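 also: firefly luciferase made from a UUG start codon reports start codon fidelity; reporter light over untreated wells divided by growth signal over untreated wells; some hits fall short of that in this replicate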
HDAC3 inhib: HDAC3 deacetylase inhibitors, primary screen, biochemical, fluorescence, cell-free homogeneous; inhibition, % at 8.3 µM; recombinant HDAC3, fluorogenic peptide/trypsin coupled; Histone deacetylase 3 (Homo sapiens), O15379; 0.15% of 320,000 active; in the data active = inhibition above about 26%, passing the limit was not always enough
Starred values were filed as active, the others as inactive; . = not tested or not shown.

Amino acid sequences for entries named in this document (tags omitted).
Melanocortin receptor 4 (Homo sapiens), P32245, UniProt P32245, whole entry, looked up: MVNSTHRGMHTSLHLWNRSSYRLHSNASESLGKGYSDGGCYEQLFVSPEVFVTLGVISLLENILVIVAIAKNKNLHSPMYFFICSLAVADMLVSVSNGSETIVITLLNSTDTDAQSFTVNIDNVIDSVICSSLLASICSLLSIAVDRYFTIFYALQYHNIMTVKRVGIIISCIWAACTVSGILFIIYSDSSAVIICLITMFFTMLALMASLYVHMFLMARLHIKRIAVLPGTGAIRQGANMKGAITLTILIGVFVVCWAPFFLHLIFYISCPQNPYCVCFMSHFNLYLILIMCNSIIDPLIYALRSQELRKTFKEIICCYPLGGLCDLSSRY

entry	SMILES	NALP1 yeast inh	ALR H2O2 inh	MC4R antag cAMP	HDAC3 inhib	MC4R barr agon	Yeast UUG start
1	C#CCOCCOCCOCCNc1nc(N2CCN(C(=O)CCCCCCCCCCNC(=O)Cn3cc(C[C@@H](C)O)nn3)CC2)nc(N2CCN(C(=O)CCCCCCCCCCNC(=O)[C@H](CCCCN)n3cc(CCCC(=O)O)nn3)CC2)n1	.	-31	3	-4	1	-7
2	CN(CC1COc2ccccc2O1)C(=O)c1ccc(N(C)C)cc1 (stereo unspecified)	-10	89*	0	1	-2	.
3	CN(C)c1ccc(NC(=O)c2cccc(N3C(=O)CCC3=O)c2)cc1	40*	99*	-13	4	-2	-3
4	COc1cc(C(=O)Nc2ccc(N(C)C)cc2)cc(OC)c1OC	10	99*	1	15	-1	-19
5	O=C(Nc1ccccc1)c1cccc(N2C(=O)CCC2=O)c1	15	-5	-4	0	-1	-20
6	COc1cc(C(=O)Nc2ccc(S(=O)(=O)N(C)c3ccccc3)cc2)cc(OC)c1OC	26	-6	14	0	0	.
7	CCN(CC)c1ccc(C(=O)Nc2cccc(F)c2)cc1	2	10	2	5	-1	-16
8	CN(C)c1cccc(C(=O)Nc2cccc(F)c2)c1	9	98*	-2	1	0	-5
9	O=C(NCC(c1cccnc1)N1CCN(c2ccccc2)CC1)c1ccco1 (stereo unspecified)	.	99*	3	4	-1	-4
10	c1ccc(Cn2nnnc2C(c2cccnc2)N2CCN(c3ccccc3)CC2)cc1 (stereo unspecified)	22	98*	4	9	-1	-18
11	O=C(NCc1cccnc1)C(=O)NCC(c1ccco1)N1CCN(c2ccccc2)CC1 (stereo unspecified)	12	98*	4	-8	-1	-7
12	O=C(NCc1cccnc1)C(=O)NCC(c1ccco1)N1CCOCC1 (stereo unspecified)	9	0	8	-7	-3	.
13	COCCn1nnnc1C(c1ccccc1OC)N1CCN(c2ccccc2)CC1 (stereo unspecified)	-1	84*	7	-6	-1	18
14	C[C@@H]1CCCCO[C@@H](CN(C)Cc2ccc(Cl)c(Cl)c2)[C@@H](C)CN([C@@H](C)CO)C(=O)c2cc(NS(=O)(=O)c3ccccc3)ccc2O1	.	.	.	.	.	3
15	COc1ccc(-c2cnc3c(c2)C(=O)N([C@H](C)CO)C[C@H](C)[C@H](CN(C)Cc2ccc(F)cc2)O3)cc1	.	.	.	.	.	3
16	COc1ccc(N2CCN(C(CNC(=O)C(=O)NCCCn3ccnc3)c3cccnc3)CC2)cc1 (stereo unspecified)	16	90*	-1	-7	2	.
17	O=C(NCCCn1ccnc1)C(=O)NCC(c1cccnc1)N1CCN(c2ccc(F)cc2)CC1 (stereo unspecified)	17	68	4	6	0	-18
18	COc1ccc(N2CCN(C(CNC(=O)C(=O)NCc3cccs3)c3ccco3)CC2)cc1 (stereo unspecified)	5	36	16	-6	-2	.
19	O=C(NCC(c1ccco1)N1CCCCC1)C(c1ccccc1)c1ccccc1 (stereo unspecified)	12	94*	6	-2	3	-5
20	O=C(NCc1cccs1)C(=O)NCC(c1ccco1)N1CCN(c2ccccc2)CC1 (stereo unspecified)	-26	98*	4	-3	-1	.
21	C/C=C/c1ccc2c(c1)O[C@@H](CN(C)Cc1ccccn1)[C@@H](C)CN([C@H](C)CO)S2(=O)=O	.	.	.	.	.	-1
22	COc1ccc(NC(=O)N[C@H]2CC[C@@H](CCn3cc(-c4ccccn4)nn3)O[C@H]2CO)cc1	.	.	.	.	.	-18
23	C[C@H](CO)N1C[C@H](C)[C@H](CN(C)S(C)(=O)=O)Oc2ccc(NS(=O)(=O)c3cn(C)cn3)cc2C1=O	.	.	.	.	.	-14

Full records, quoted from the list.
Entry for `COc1cc(C(=O)Nc2ccc(S(=O)(=O)N(C)c3ccccc3)cc2)cc(OC)c1OC` = NALP1 yeast inh: 26; ALR H2O2 inh: -6; MC4R antag cAMP: 14; HDAC3 inhib: 0; MC4R barr agon: 0; Yeast UUG start: .
Entry for `COCCn1nnnc1C(c1ccccc1OC)N1CCN(c2ccccc2)CC1` (stereo unspecified) = NALP1 yeast inh: -1; ALR H2O2 inh: 84*; MC4R antag cAMP: 7; HDAC3 inhib: -6; MC4R barr agon: -1; Yeast UUG start: 18
